This passage reports fluorescence ratio to DMSO results from PubChem BioAssay AID602162 (NMMLSC, 2011).

The chains behind the UniProt entries cited, without tags or fusion partners.
UniProt Q9NP58, whole entry: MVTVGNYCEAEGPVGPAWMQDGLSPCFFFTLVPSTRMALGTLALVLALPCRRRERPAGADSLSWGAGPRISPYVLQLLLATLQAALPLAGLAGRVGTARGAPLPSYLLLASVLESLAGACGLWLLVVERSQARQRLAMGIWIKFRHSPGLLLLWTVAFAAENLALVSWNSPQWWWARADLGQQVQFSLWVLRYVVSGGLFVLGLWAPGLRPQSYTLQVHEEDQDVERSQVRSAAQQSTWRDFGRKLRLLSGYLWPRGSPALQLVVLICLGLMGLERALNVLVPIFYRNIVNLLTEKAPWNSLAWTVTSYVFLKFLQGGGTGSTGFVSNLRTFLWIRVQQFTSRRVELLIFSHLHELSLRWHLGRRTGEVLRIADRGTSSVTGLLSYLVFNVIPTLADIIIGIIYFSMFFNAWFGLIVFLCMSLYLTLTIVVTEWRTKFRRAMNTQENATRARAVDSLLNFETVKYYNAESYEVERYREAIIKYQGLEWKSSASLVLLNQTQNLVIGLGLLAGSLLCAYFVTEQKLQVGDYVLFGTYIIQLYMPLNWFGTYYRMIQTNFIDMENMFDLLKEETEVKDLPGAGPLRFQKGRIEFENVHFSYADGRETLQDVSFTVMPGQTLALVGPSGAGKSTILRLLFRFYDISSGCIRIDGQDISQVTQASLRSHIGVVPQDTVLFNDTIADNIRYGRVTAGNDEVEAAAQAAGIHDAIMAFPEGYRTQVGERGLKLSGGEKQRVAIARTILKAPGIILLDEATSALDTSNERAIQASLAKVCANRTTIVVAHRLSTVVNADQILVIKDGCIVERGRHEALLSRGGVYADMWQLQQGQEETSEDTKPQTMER

The list shows a part of the results, in another mix than the full data. Some tests of the compounds listed are not included; inactive here does not mean inactive elsewhere. Active and inactive are the calls of the source.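 The calls were made as follows: active = fluorescence ratio to DMSO below 75%, the collection mean minus 3 SD; inconclusive = too few cells collected in the well; inactive = the rest.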

This assay addresses ATP-binding cassette sub-family B member 6 (Homo sapiens) (UniProt Q9NP58). The assay is described as follows: ABCB6 transporter inhibitors, primary screen, K562-ABCB6 cells, flow cytometry, MLPCN library (AID 602162).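 Also: signal is porphyrin accumulated inside mitochondria; 100% equals median channel fluorescence of DMSO control wells; lower ratio means ABCB6 inhibition with less porphyrin fluorescence.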 The following applies: K562-ABCB6 porphyrin accumulation, 1 h, at 10 µM, stronger effect = lower value.
`COc1ccc(Cl)cc1C(=O)NCC1(N(C)C)CCCCC1`: the fluorescence ratio to DMSO is inactive: 102%.
The figure for `COc1cccc(C(=O)NCC2(N3CCCCC3)CCCCC2)c1` is inactive: 95%; for `O=C(NCC1(N2CCCCC2)CCCCC1)c1cccc(Cl)c1` it is inactive: 98%.
The figure for `CN(C)C1(CNC(=O)c2ccc(Br)cc2)CCCCC1` is inactive: 100%; for `COc1cc(C(=O)NCC2(N(C)C)CCCCC2)c([N+](=O)[O-])cc1OC` it is inactive: 96%.
Turning to `C=C(C)C#CC(O)(C(=O)OC1CCN(C)CC1)c1ccccc1` (stereo unspecified), the fluorescence ratio to DMSO is inactive: 104%.
The figure for `COc1ccc(Br)c(C(=O)NCC2(N3CCCCC3)CCCCC2)c1` is inactive: 99%.
The figure for `O=C(OCCN1CCCC1)C(O)(c1ccccc1)c1ccccc1` is inactive: 97%; for `CC(C)Oc1ccc(C(=O)NCC2(N(C)C)CCCCC2)cc1` it is inactive: 98%.
Consider `CN(C)c1cccc(C(=O)NCC2(N(C)C)CCCCC2)c1`, for which the fluorescence ratio to DMSO is inactive: 92%.
`O=C(OC1CN2CCC1CC2)C(CO)(c1ccccc1)c1ccccc1` (stereo unspecified): the fluorescence ratio to DMSO was inactive: 109%.
For `COc1cc(SC)ccc1C(=O)NCC1(N(C)C)CCCCC1` the value was inactive: 95%.
For the molecule `CCN(CC)CC(C)C(C)OC(=O)C(O)(c1ccccc1)c1ccccc1` (stereo unspecified), the fluorescence ratio to DMSO was inactive: 102%.
For `CC(C)N1C(=O)CC2(CCN(CCOC(=O)C(O)(c3ccccc3)c3ccccc3)CC2)C1=O` the value was inactive: 96%; for `Cc1ccc(C(=O)NCC2(N3CCCCC3)CCCCC2)cc1`, inactive: 99%; for `O=C(NCC1(N2CCCCC2)CCCCC1)c1cc([N+](=O)[O-])ccc1Cl`, inactive: 99%.
For `CN1[C@@H]2CC[C@H]1CC(OC(=O)C(O)(c1ccccc1)c1ccccc1)C2` (stereo partly specified) the value was inactive: 98%; for `O=C(NCC1(N2CCCCC2)CCCCC1)c1cc(F)c(F)cc1Cl`, inactive: 97%; for `C=CCN1CCN(CCOC(=O)C(O)(c2ccccc2)c2ccccc2)CC1`, inactive: 97%.
As for `COc1ccc(C(=O)NCC2(N(C)C)CCCCC2)cc1`, the fluorescence ratio to DMSO is inactive: 101%.
For `O=C(NCC1(N2CCCCC2)CCCCC1)c1cccc(Br)c1` the value was inactive: 93%; for `Cc1cc(C(=O)NCC2(N3CCCCC3)CCCCC2)ccc1[N+](=O)[O-]`, inactive: 90%; for `CCN1CCCC(OC(=O)C2(O)c3ccccc3C=Cc3ccccc32)C1` (stereo unspecified), inactive: 100%.
The figure for `CN(C)C1CCCC1OC(=O)C(O)(c1ccccc1)c1ccccc1` (stereo unspecified) is inactive: 95%; for `CN(C)c1ccc(C(=O)NCC2(N(C)C)CCCCC2)cc1` it is inactive: 101%; for `Cc1ccccc1C(=O)NCC1(N2CCCCC2)CCCCC1` it is inactive: 100%.
